In PubChem BioAssay AID720711 (National Center for Advancing Translational Sciences (NCATS), 2013) one finds activation data, which are given here for one compound.

Sequences of proteins named here, by UniProt entry; tags and fusion partners are left off.
UniProt Q8WZA2, whole entry: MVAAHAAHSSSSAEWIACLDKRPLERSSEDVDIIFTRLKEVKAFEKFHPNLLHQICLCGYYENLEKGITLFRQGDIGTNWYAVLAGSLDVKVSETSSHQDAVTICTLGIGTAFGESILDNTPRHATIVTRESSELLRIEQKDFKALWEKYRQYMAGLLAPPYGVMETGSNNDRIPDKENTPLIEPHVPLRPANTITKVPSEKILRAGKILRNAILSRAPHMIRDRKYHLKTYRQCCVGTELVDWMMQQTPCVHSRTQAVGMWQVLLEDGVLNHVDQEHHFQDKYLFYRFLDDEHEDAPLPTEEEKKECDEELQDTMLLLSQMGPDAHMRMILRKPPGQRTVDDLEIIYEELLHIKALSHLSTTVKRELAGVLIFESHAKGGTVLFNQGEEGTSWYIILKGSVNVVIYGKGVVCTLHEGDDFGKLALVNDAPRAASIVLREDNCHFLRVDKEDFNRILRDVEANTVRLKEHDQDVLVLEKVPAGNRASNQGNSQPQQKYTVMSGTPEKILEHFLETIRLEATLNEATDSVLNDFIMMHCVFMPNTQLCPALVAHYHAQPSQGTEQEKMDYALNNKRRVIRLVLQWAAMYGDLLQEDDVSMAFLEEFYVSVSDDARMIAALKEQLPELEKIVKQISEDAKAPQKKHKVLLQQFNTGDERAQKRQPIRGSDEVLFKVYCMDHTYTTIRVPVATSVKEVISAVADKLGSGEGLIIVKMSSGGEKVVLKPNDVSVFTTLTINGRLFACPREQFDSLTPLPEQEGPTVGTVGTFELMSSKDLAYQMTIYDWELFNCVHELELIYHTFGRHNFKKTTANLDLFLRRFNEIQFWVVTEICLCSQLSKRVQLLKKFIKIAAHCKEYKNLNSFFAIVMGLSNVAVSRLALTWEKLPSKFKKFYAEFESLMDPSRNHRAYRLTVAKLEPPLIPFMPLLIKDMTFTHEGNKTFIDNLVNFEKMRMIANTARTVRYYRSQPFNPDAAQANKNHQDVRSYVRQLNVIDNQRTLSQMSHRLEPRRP

Molecules are shown by their SMILES. This is a selection; strong and weak results do not stand in their true shares. Active and inactive are the calls of the source. Calls follow the shape of the dose curve; as a rule, active = well fitted activation curve with a large enough effect; inconclusive = small, poorly fitted or top-dose-only effect; inactive = no such curve, though single readings can be large or run the other way.

For this test, the target named is Rap guanine nucleotide exchange factor 4 (Homo sapiens) (UniProt Q8WZA2). Description: qHTS for Agonist of cAMP-regulated guanine nucleotide exchange factor 4 (EPAC2): primary screen. Also: nearly all actives have a fitted effect of over 50% in size. Particulars: biochemical qHTS, 100% = 6.5 mM cAMP response; at 154 µM (top of the series). From the text:
In multi-cellular eukaryotic organisms, the effects of cAMP are transduced by two ubiquitously-expressed intracellular cAMP receptors, the classic protein kinase A/cAMP-dependent protein kinase (PKA/cAPK) and the more recently discovered exchange protein directly activated by cAMP/cAMP-regulated guanine nucleotide exchange factor (EPAC/cAMP-GEF). Both PKA and EPAC are ubiquitously expressed in all tissues, and an increase in intracellular cAMP levels will lead to the activation of both PKA and EPAC. […]
This qHTS will be used to screen the Molecular Libraries Small Molecule Repository (MLSMR) as a concentration-titration series using the NCGC unique quantitative screening (qHTS) platform to find activators for EPAC2. […] Activators are identified by monitoring the change in fluorescence signal as the exchanged free BODIPY-GDP has a reduced fluorescence compared to Rap1-bound BODIPY-GDP. […]
Briefly, three uL of reagents (100 nM EPAC2, 250 nM RAP1B-BODIPY-GDP, 50 uM GDP) were dispensed into a 1536-well Greiner black solid-bottom medium binding assay plate. […] The assay plates were read at 5 minute intervals for 30 minutes in the ViewLux plate reader using 480nm excitation and 540nm emission filters. […]
(In general: Quantitative high-throughput screening tests each substance at several concentrations.)
In the case of `CN1CCCCC1COC(=O)C1(O)c2ccccc2CCc2ccccc21` (stereo unspecified), the activation was inactive: -11%.
